Laboratory results as given in PubChem BioAssay AID720533 (National Center for Advancing Translational Sciences (NCATS), 2013).
The entries are a selection whose mix differs from that of the whole data set. Some tests of the compounds listed are not included; inactive here does not mean inactive elsewhere. Results filed as inconclusive are left out. The source made the active and inactive calls. Calls come from the whole dose curve; tested in HEK293 cells.

assay: qHTS for Inhibitors of binding or entry into cells for Lassa Virus; details: Lassa virus pseudotyped entry inhibition, cell-based qHTS; at 49.2 µM (top of the series)
% is set by controls: 0 for no effect and ±100 for the full control effect.

Structure (SMILES) | activity change, negative = inhibition
CN1CCCC(OC(=O)C(O)(c2ccccc2)c2ccccc2)C1 (stereo unspecified) | inactive: -6.11%
